Each structure is given as a SMILES string. The entries are a selection whose mix differs from that of the whole data set. Active and inactive are the calls of the source.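 How the source made its calls: active means mean inhibition across four replicates of at least 40 percent at the single tested concentration; inactive means the rest.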

The assay can be described thus: HIF-2a driven luciferase blockers, single dose – luminescence, 786-0 RCC cells, confirmation (AID 651580). The conditions noted are these: HIF-2a luciferase reporter luminescence, overnight, at 18.8 µM, active compounds read high. On the technique in general: In a reporter assay the amount or activity of a reporter protein is the signal.
For orientation: inhibition means the change of the read-out against control, counted positive when it falls. As for `CN(C)C(=O)c1cc([N+](=O)[O-])cc2c1-c1c(cc([N+](=O)[O-])cc1[N+](=O)[O-])C2=O`, the inhibition was inactive: -4.27%.

The values are drawn from PubChem BioAssay AID651580 (Sanford-Burnham Center for Chemical Genomics, 2012).
